Literature values as cited in patent US20240011094A1, “METHODS FOR DIAGNOSIS AND TREATING POLYCYSTIC OVARY SYNDROME (PCOS)” (INSTITUT NATIONAL DE LA SANTÉ ET DE LA RECHERCHE MÉDICALE, priority 2020, published 2024).

Amino acid sequences for entries named in this document (tags omitted). A change or cut given only in a name is not applied to a line headed by its entry.
UniProt Q3URK3: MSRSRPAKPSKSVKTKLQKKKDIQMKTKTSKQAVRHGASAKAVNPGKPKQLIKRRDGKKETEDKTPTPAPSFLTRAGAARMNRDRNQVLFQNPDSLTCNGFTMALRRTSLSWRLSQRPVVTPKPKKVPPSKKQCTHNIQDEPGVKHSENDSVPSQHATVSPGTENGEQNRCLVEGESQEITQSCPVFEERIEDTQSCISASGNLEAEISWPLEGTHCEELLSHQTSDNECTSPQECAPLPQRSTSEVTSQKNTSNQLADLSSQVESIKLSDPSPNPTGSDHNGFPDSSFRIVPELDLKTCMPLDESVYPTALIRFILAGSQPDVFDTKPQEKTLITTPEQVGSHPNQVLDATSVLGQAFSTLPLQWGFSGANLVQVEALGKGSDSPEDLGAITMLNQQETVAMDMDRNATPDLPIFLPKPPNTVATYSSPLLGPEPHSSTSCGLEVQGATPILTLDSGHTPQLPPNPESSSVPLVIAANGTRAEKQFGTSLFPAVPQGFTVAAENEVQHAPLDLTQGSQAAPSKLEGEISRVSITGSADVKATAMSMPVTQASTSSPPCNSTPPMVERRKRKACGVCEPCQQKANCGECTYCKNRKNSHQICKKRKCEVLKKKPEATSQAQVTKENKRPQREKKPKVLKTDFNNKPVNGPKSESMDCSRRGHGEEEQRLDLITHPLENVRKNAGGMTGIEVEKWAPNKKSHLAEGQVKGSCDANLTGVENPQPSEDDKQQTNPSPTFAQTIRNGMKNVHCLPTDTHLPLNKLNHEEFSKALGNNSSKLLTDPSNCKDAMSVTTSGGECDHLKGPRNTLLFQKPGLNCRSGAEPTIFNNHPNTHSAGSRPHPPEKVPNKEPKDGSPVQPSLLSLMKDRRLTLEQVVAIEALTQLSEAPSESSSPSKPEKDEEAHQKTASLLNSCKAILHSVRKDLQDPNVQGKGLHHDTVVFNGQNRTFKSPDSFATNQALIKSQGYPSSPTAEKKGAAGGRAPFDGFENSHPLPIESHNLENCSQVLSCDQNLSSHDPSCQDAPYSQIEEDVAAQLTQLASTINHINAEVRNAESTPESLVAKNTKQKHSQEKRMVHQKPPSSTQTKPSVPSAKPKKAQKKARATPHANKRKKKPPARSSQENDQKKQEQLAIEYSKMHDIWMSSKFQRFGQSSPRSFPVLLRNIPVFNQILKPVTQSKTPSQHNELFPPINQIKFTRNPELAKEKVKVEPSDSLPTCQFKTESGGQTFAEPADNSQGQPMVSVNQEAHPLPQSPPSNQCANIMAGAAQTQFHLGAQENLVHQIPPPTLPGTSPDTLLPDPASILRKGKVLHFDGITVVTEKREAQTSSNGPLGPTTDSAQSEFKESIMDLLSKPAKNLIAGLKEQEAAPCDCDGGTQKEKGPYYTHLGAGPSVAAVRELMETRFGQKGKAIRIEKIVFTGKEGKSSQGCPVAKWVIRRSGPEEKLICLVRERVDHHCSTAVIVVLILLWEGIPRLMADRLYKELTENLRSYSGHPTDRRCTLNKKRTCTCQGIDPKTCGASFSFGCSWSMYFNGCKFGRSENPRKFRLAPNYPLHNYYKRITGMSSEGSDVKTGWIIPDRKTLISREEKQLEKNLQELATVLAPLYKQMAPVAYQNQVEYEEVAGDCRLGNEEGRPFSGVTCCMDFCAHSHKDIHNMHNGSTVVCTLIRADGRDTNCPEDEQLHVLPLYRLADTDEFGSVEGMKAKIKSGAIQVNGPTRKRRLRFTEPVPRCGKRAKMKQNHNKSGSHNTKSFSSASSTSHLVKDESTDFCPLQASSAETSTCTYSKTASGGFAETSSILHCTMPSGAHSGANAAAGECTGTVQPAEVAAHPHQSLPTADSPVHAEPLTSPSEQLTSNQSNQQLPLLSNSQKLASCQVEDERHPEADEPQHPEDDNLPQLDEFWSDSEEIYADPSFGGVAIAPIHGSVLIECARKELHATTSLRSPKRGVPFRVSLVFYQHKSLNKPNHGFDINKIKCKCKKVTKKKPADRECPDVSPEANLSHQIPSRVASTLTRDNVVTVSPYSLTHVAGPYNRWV

Molecular target: mTET1 (Mus musculus, UniProt Q3URK3)
Conditions: cited from earlier work

For `O=C(O)CC[C@H](O)C(=O)O` [Molecule 29, L-2-hydroxyglutaric acid], the IC50 is given as 1000 µM.
